# Screens from PubChem.
# INS-1E GSIS act: primary screen for activators of insulin secretion dependent on glucose, INS-1E cells, GLuc reporter luminescence; INS-1E GLuc reporter insulin secretion, 2-3 h; activation, % at 16.6 µM; 0.61% of 370,000 active; AID 743287;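 active = lowest replicate activation of at least 40%, so every replicate reaches that level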
# Yeast UUG start-1: alters start codon recognition fidelity in yeast | S. cerevisiae UUG-firefly luciferase reporter, luminescence/redox ratio | activity score, % at 18.7 µM | hit rate 0.13% among 350,000 | AID 602363;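 active means replicate mean at a twofold rise or more, about +100% in these data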;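 further: firefly luciferase made from a UUG start codon reports start codon fidelity; reporter light over untreated wells divided by growth signal over untreated wells; some hits fall short of that in this replicate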
# SR-BI HDL uptake: blocks mouse SR-BI lipid uptake from DiI-HDL; ldlA[mSR-BI] CHO cells, DiI-HDL uptake fluorescence, 3 h; inhibition, % at 12.5 µM; 0.96% of 320,000 active; AID 488896;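 active = mean replicate inhibition of at least 70% and a set share of replicates each scoring 70 or more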
# SR-BI uptake up: enhances SR-BI lipid uptake from DiI-HDL; 0.096% of 320,000 active; activation, % at 12.5 µM; AID 504775; CHO ldlA[mSR-BI] cells, DiI-HDL uptake fluorescence, 3 h; 100 = double the neutral-control signal;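 active = mean replicate activation of at least 60% and every replicate at or above 60%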
#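 Test system: SR-BI-overexpressing, LDLR-lacking CHO cells. Measured by: DiI fluorescence, bottom read. Medium: Ham's F12 with 0.5% BSA, HEPES 25 mM, pH 7.4. Timing: 3 h uptake period with compound, 37 °C.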
# Yeast UUG start-2: modulators of start codon recognition fidelity in yeast | S. cerevisiae UUG-start firefly luciferase, luminescence, 4 h; 100% means double the DMSO signal | shares compounds with Yeast UUG start-1 | 540 tested, under 10 active | AID 652061 | activation, % at 38 µM;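 active = signal increase whose fitted curve reaches an absolute level of 40 at a concentration under 10 µM; inactive = activity opposite to the expected increase, or the rest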
# Numbers stand for hits; n = inactive; x = no result. This is a sample that favours compounds with a hit; in the whole collection about 1.3% have one here.
SMILES,INS-1E GSIS act,Yeast UUG start-1,SR-BI HDL uptake,SR-BI uptake up,Yeast UUG start-2
CC(C)CN1C(=O)[C@@]2(Cc3ccccc31)c1ccccc1C(=O)N(Cc1ccccc1Cl)[C@H]2c1ccc(CO)cc1,x,n,x,x,x
O=S(=O)(N[C@H]1CC[C@H](CCn2cc(C3(O)CCCC3)nn2)O[C@@H]1CO)c1ccc(F)cc1,n,n,x,x,x
COc1ccccc1Oc1nc2ccccn2c(=O)c1/C=C(\C#N)C(=O)Nc1c(C)n(C)n(-c2ccccc2)c1=O,x,112,n,n,n
CCCN(C)C[C@H]1OCCCC[C@H](C)Oc2ccc(NC(=O)Cc3ccccc3)cc2C(=O)N([C@@H](C)CO)C[C@H]1C,n,n,x,x,x
C[C@@H]1CN([C@H](C)CO)C(=O)c2cccc(NC(=O)Nc3ccc(F)cc3)c2O[C@@H]1CN(C)S(=O)(=O)c1cn(C)cn1,n,x,x,x,x
O=c1[nH]c(/C=C\c2ccc(O)c(Cl)c2)nc(O)c1[N+](=O)[O-],n,167,n,n,n
C=CCN1C(=O)C2C(C(=O)NCc3ccccc3)C3C=CC2(O3)C1C(=O)NC(C)(C)C (stereo unspecified),n,533,n,n,n
C=CCN1C(=O)C2C(C(=O)NC)C3C=CC2(O3)C1C(=O)NCc1ccc(OC)cc1 (stereo unspecified),x,n,n,n,x
Cc1noc(C)c1NC(=O)Nc1ccc2c(c1)C(=O)N([C@@H](C)CO)C[C@@H](C)[C@H](CN(C)S(C)(=O)=O)O2,n,n,x,x,x
O=C(CNC(=O)c1ccccc1F)NCCOc1cccc(Cl)c1Cl,n,517,n,n,n
O=[N+]([O-])c1ccc(NCCCN2CCOCC2)c([N+](=O)[O-])c1,n,x,n,n,x
CN1CCN(CCC2Oc3cc([N+](=O)[O-])ccc3NC2=O)CC1 (stereo unspecified),n,x,n,n,n
O=C1Nc2ccc([N+](=O)[O-])cc2OC1CCN1CCOCC1 (stereo unspecified),n,n,x,x,n
O=[N+]([O-])c1ccc(N2CCN(c3ccccc3)CC2)cc1,x,n,n,n,x
O=C1Nc2ccc([N+](=O)[O-])cc2OC1CCN1CCCC1 (stereo unspecified),n,n,n,n,x
O=C1Nc2ccc([N+](=O)[O-])cc2OC1CCN1CCN(c2ccccc2)CC1 (stereo unspecified),n,n,n,n,n
O=C(Nc1ccc2c(c1)[C@H]1C[C@@H](CC(=O)N3CCOCC3)O[C@@H](CO)[C@H]1O2)NC1CCCC1,n,n,x,x,x
O=S(=O)(Nc1cccc(-c2cn3cccnc3n2)c1)c1ccc(-c2ccccc2)cc1,x,545,n,n,n
COc1ccc2c3c(n(C)c2c1)[C@H](CO)N(C(=O)Cc1ccccn1)CC31CCN(CC2CCCCC2)CC1,n,x,x,x,x
CO[C@@H]1CN(C)C(=O)c2cc(NC(=O)Nc3ccc(F)cc3)ccc2OC[C@@H](C)N(C(=O)c2cnccn2)C[C@H]1C,n,n,x,x,x
CC1=C(C(=O)N(C)C)CC(CC(=O)NCCCN(C)C)C(=O)N1CCCN1CCCC1=O (stereo unspecified),n,104,x,x,n
CC1=C(C(=O)N(C)C)CC(CC(=O)NCCc2ccccn2)C(=O)N1CCCN1CCCC1=O (stereo unspecified),n,101,x,x,n
CCN(CC)C(=O)C1=C(C)N(CCCN2CCCC2=O)C(=O)C(CC(=O)NCCc2ccccn2)C1 (stereo unspecified),n,n,x,x,x
C[C@@H]1CCCCO[C@H](CN(C)S(=O)(=O)c2cn(C)cn2)[C@@H](C)CN([C@@H](C)CO)C(=O)c2cc(N(C)C)ccc2O1,n,n,x,x,x
Cc1ccc(S(=O)(=O)N2CCOCC2)cc1C(=O)NC1CCCCCC1,n,n,n,n,x
SMILES,INS-1E GSIS act,Yeast UUG start-1,SR-BI HDL uptake,SR-BI uptake up,Yeast UUG start-2
Cc1ccc(S(=O)(=O)N2CCOCC2)cc1C(=O)OC(C)C(=O)NC1CCCC1 (stereo unspecified),n,119,n,n,n
COc1ccc2oc(C(=O)OCC(=O)c3ccc4c(c3)OCCO4)c(C)c2c1,x,668,n,n,n
CCCCn1c(N)c(N(CCOC)C(=O)C2CC(=O)N(c3ccc(CC)cc3)C2)c(=O)[nH]c1=O (stereo unspecified),n,129,n,n,n
Cc1onc(-c2ccccc2)c1-c1ccnn1S(=O)(=O)c1ccc(Cl)cc1,x,x,n,n,x
Cc1onc(-c2ccc(Cl)cc2)c1-c1ccnn1S(=O)(=O)c1cccc(C(F)(F)F)c1,n,187,n,n,n
COc1ccc(S(=O)(=O)N(C)C[C@@H]2Oc3ccc(NC(=O)Nc4c(C)noc4C)cc3C(=O)N([C@H](C)CO)C[C@H]2C)cc1,n,n,x,x,x
COCCNc1nnc(SCC(=O)c2ccc3c(c2)OCO3)s1,n,474,n,n,n
CCN(CC)CCNC(=O)Cc1nn(Cc2ccccc2)c(=O)c2ccccc12,n,n,n,n,n
CO[C@H]1CN(C)C(=O)c2cc(NC(=O)C3CC3)ccc2OC[C@@H](C)N(Cc2ccccc2)C[C@@H]1C,n,n,x,x,x
CC=Cc1ccc2n(c1=O)C[C@@H]1[C@@H](CO)[C@H](C(=O)NCCC)[C@H]2N1CC1CCCC1 (mixture of isomers),n,x,x,x,x
C[C@@H]1CCCCO[C@@H](CN(C)S(=O)(=O)c2ccc(Cl)cc2)[C@H](C)CN([C@@H](C)CO)C(=O)c2cc(NC(=O)c3ccncc3)ccc2O1,n,n,x,x,x
C=CCO/N=C(/C)c1c(O)c(CC)c(-c2ccccc2)n(-c2ccccc2)c1=O,x,280,n,n,n
COc1ccc(S(=O)(=O)N(C)C[C@@H]2OCCCC[C@H](C)Oc3ccc(NC(=O)C4CCCCC4)cc3C(=O)N([C@@H](C)CO)C[C@@H]2C)cc1,n,n,x,x,x
CCC(=O)N1C[C@@H](O)COC[C@H]2O[C@@H](CC(=O)NCC3CCCCC3)CC[C@@H]21,n,112,x,x,n
Cc1ccc(NC(=O)/C(=C\c2cccc([N+](=O)[O-])c2)NC(=O)c2cccs2)cc1,x,557,n,n,n
Cc1ccc(NC(=O)/C(=C/c2cccc([N+](=O)[O-])c2)NC(=O)C2CCCCC2)cc1,n,n,n,n,x
COc1ccccc1C1(CCN=Cc2ccc(N(C)C)cc2)CCOC(C)(C)C1 (stereo unspecified),n,n,n,n,x
CN(C)c1ccc(C=NCCC2(O)CCOC(C)(C)C2)cc1 (stereo unspecified),x,118,n,n,n
CNC(=O)C[C@H]1CC[C@@H]2[C@H](COC[C@@H](O)CN2Cc2ccc(Cl)c(Cl)c2)O1,n,n,x,x,x
COc1ccc(C(=O)N2CCCc3ccccc32)cc1OC,n,active,83,n,n
COc1cc(SC)ccc1C(=O)Nc1ccccc1C#N,n,501,n,n,n
C[C@H](CO)N1C[C@H](C)[C@H](CN(C)Cc2cccnc2)Oc2ncc(C#CC3CCCCC3)cc2C1=O,n,x,x,x,x
C[C@H](CO)N1C[C@H](C)[C@@H](CN(C)Cc2cccnc2)Oc2ncc(C#CC3CCCCC3)cc2C1=O,x,141,x,x,n
